According to ChEMBL document CHEMBL2029218, “Structure-based design of novel class II c-Met inhibitors: 2. SAR and kinase selectivity profiles of the pyrazolone series” (J Med Chem, 2012):

Key:
[1] = target: Tyrosine-protein kinase Lck (Homo sapiens, UniProt P06239)
[2] = target: Hepatocyte growth factor receptor (Homo sapiens, UniProt P08581)
[3] = target: cAMP-dependent protein kinase catalytic subunit alpha (Homo sapiens, UniProt P17612); assay: Inhibition of PKAalpha

- IC50 [1]: 10 nM
- IC50 [2]: 10 nM
- IC50 [3]: 100000 nM
SMILES: COc1cc2nccc(Oc3ccc(NC(=O)c4c(C)n(C)n(-c5ccccc5)c4=O)cc3F)c2cc1OC
